Experimental data reported in patent US20030104974A1, “Dual inhibitorsof PDE 7 and PDE 4” (priority 2001, published 2003).

Protein sequences, listed by entry. Tags and fused reporters are not part of them. Lines headed by an entry give the natural chain unless they say otherwise; changes in a name come on top.
UniProt Q13946: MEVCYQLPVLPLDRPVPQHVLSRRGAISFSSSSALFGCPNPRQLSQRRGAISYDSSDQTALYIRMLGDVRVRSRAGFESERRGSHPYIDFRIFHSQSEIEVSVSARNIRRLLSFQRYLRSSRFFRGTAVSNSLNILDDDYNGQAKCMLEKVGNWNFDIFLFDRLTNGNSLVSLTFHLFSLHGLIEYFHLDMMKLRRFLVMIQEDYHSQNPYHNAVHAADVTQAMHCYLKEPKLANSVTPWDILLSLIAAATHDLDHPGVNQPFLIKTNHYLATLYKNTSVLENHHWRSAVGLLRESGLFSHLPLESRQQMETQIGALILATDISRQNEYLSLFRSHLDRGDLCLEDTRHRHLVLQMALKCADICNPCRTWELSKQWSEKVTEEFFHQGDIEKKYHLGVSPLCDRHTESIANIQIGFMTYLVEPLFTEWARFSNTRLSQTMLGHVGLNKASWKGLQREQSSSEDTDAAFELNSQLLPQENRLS

Target: T1, PDE7 (Homo sapiens, UniProt Q13946)
T1 construct: endogenous in cells; host or cells: Hut78 cells (crude lysate)
Assay: SPA assay for cAMP, PDE7 in Hut78 cell lysate treated with Zardaverine
Assay type: biochemical
Conditions: ratio of PDE4 and PDE7 IC50
Experimental: Hut78 cells were grown in 10% FCS in Iscoves Modified Dulbecco's Medium (Gibco BRL-Life Technologies, Grand Island, N.Y.) with antibiotics. Cells were centrifuged and resuspended in four volumes of [40 mM Tris (pH 7.5)/50 μM EDTA/200 μM PMSF with a cocktail of Protease inhibitors (Boehringher Mannheim, Indianapolis, Ind.)] at 4 C. Cells were homogenized using a Virtis homogenizer, and the lysate was centrifuged twice for 15 min at 15,000×g. Glycerol was added to a final volume of 50% for storage at −20C.
Inhibition of PDE activity in Hut78 cell lysate was determined using an SPA specific for cAMP (Amersham Pharmacia Biotech, Buckinghamshire, UK) according to the manufacturers instructions with minor modifications. Enzyme assays were performed at room temperature in the presence of 50 mM Tris HCl, pH7.5, containing 8.3 mM MgCl2, 1.7 mM EGTA and 0.5 mg/mL BSA. Each assay was performed in a 100 μL reaction volume in 96 well microtitre plates containing the above buffer, 0.3 ul of Hut78 cell lysate treated with 2 uM Zardaverine to inhibit PDE3 and PDE4, 0.05 uCi of [5′,8-3H] Adenosine 3′,5′-cyclic phosphate as an ammonium salt for 20 min. The reaction was terminated by the addition of 50 μl PDE SPA beads (1 mg) water with 10 mM cold cAMP (Sigma, St. Louis Mo.). […]

CCOC(=O)c1sc(Nc2nc(N3CCC(O)CC3)cc(N3CCC(O)CC3)n2)nc1C [Example F2, 2-[4,6-Bis-(4-hydroxy-piperidin-1-yl)-pyrimidin-2-ylamino]-4-methyl-thiazole-5-carboxylic Acid Ethyl Ester]
selective for PDE7 over PDE4: greater than 50 fold
